Only a part is listed here, and it is no random draw. Active and inactive are the calls of the source. The call rests on the fitted dose curve; in most records, active means well fitted inhibition curve with a large enough effect in the polarisation, with a control signal flat (not every such curve was filed as active); inconclusive means small, poorly fitted or top-dose-only effect, or effect the other way, or a change in a side signal; inactive means no such curve, though single readings can be large or run the other way; the % refers to the polarisation.

Sequences of proteins named here, by UniProt entry; tags and fusion partners are left off.
UniProt Q03164, whole entry: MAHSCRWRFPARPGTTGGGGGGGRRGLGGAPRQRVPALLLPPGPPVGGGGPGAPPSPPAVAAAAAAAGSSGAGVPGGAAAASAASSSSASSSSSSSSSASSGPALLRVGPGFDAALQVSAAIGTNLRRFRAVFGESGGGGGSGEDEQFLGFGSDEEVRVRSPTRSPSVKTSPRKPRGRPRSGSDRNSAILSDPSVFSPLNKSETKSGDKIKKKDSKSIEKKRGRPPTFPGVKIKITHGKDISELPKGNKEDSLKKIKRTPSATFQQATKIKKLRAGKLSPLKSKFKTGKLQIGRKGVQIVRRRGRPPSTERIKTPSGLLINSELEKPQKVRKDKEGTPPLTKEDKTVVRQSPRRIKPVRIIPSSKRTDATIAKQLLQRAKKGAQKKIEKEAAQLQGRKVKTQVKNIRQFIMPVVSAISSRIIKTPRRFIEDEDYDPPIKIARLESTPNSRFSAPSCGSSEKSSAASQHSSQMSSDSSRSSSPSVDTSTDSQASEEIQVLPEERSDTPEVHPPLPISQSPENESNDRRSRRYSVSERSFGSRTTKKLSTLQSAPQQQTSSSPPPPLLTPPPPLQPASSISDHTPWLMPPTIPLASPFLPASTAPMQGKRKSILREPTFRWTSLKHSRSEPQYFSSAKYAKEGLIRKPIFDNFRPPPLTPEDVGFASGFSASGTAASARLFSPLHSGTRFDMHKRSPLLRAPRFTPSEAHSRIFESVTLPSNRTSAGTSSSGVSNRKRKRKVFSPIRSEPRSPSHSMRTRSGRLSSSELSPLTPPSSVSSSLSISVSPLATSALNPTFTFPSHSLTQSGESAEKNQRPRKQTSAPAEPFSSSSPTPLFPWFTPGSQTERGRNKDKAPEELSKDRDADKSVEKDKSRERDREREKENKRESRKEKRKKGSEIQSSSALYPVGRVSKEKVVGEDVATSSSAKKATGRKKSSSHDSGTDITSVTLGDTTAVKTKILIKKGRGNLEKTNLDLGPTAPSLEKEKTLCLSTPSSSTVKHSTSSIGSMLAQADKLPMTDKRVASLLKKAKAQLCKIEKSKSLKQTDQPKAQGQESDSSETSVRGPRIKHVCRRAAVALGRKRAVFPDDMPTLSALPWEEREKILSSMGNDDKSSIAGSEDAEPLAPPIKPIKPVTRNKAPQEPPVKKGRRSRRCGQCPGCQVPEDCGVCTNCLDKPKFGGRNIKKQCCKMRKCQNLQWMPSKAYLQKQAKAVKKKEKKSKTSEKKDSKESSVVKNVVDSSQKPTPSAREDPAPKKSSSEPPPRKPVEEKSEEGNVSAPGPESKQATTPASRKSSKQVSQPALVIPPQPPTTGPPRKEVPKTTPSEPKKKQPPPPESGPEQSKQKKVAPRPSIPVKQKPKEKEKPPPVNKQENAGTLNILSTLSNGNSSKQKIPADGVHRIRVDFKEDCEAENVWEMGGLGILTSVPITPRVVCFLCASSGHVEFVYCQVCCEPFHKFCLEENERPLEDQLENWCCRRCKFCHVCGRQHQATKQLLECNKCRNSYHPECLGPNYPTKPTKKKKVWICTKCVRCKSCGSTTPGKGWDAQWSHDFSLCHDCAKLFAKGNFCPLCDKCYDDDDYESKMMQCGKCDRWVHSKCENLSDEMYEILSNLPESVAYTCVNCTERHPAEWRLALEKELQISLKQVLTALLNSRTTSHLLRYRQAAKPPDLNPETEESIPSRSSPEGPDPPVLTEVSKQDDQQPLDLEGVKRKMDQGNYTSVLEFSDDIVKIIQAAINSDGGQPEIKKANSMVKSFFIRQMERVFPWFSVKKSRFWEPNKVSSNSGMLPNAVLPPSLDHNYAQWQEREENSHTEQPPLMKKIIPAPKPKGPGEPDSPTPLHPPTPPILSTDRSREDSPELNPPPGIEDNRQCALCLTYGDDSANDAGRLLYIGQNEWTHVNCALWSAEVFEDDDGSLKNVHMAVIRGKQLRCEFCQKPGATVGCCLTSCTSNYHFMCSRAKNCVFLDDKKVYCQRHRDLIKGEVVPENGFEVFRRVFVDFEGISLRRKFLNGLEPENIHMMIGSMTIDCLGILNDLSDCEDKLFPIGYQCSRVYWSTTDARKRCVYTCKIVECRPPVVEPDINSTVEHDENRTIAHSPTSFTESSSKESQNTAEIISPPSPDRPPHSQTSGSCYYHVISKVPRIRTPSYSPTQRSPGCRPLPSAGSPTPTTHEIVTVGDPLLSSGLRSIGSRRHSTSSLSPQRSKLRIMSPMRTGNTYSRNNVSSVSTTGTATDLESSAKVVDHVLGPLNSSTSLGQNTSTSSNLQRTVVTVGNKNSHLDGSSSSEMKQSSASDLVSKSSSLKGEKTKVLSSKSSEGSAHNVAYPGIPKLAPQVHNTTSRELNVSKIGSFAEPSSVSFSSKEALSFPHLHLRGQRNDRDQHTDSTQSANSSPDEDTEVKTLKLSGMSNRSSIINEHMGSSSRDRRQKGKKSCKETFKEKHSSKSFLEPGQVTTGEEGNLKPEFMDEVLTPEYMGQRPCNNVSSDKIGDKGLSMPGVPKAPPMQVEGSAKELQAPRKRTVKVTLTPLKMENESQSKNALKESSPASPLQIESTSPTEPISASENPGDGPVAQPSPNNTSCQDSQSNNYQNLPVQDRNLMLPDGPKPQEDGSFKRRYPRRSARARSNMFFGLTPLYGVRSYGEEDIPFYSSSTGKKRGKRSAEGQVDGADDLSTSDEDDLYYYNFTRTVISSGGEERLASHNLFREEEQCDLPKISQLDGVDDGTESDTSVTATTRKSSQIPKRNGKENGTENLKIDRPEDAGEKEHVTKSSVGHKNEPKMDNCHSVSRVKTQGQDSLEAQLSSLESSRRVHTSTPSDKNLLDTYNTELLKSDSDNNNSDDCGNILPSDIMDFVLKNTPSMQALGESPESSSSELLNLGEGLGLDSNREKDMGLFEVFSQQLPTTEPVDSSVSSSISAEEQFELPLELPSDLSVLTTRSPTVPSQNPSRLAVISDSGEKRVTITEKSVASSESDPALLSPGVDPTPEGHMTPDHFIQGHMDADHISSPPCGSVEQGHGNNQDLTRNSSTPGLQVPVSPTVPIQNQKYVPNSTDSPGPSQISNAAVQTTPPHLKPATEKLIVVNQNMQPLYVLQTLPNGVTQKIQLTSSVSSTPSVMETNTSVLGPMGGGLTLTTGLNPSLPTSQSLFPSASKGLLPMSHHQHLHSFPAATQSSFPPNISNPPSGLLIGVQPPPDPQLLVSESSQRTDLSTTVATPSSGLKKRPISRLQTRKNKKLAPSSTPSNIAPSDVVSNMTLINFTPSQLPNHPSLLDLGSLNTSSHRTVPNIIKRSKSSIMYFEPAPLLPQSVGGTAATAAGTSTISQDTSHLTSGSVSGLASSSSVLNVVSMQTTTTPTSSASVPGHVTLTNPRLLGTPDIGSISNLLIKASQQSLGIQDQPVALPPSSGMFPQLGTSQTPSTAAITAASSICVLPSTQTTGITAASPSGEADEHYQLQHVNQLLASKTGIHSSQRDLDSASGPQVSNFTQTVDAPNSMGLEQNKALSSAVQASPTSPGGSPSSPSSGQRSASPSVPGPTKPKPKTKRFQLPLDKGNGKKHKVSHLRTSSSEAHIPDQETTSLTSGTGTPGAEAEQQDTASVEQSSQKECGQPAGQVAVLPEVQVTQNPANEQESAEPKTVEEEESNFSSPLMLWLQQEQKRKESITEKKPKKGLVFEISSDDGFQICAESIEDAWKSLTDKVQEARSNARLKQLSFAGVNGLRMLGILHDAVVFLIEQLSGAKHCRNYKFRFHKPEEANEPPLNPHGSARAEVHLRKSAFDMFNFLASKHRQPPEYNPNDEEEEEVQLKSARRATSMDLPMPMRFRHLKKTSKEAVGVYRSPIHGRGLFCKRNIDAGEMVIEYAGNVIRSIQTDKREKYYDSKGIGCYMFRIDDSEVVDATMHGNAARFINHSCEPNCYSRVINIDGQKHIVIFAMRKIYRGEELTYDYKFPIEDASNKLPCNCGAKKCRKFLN

The experiment concerns the target Histone-lysine N-methyltransferase 2A (Homo sapiens) (UniProt Q03164). Put plainly: qHTS Fluorescence Polarization Assay for Inhibitors of MLL CXXC domain - DNA interaction. The settings on record: MLL-CXXC / FITC-HOXA9 DNA fluorescence polarization; at 115 µM (top of the series). Background: In qHTS, concentration-response curves come from the screen itself.
In the case of `O=C(O)C1(Nc2ccccc2)CCN(Cc2ccccc2)CC1`, the activity change, negative = inhibition is inactive: 13.4%.

`CC(C)(C)OC(=O)N1CCC(Nc2ccccc2)CC1`: the activity change, negative = inhibition was inactive: -6.23%.

For the compound `CCCOc1ccc(C(=O)NCC2(N(C)C)CCCCC2)cc1`, the activity change, negative = inhibition is inactive: 6.36%.

As for `CN1CCC(Nc2ccc(F)c(Cl)c2)CC1`, the activity change, negative = inhibition was inactive: -2.7%.

Regarding `CCOc1ncccc1C(=O)NCC1(N2CCOCC2)CCCCC1`, the activity change, negative = inhibition was inactive: -1.1%.

For `CN1CCC(Nc2ccc(Cl)cc2)CC1`, the activity change, negative = inhibition was inactive: -1.25%.

Consider `CCCOc1ccc(C)cc1CN(CCCl)CCCl`, for which the activity change, negative = inhibition was inactive: 5.74%.

Consider `COc1cc(OC)cc(C(=O)NCC2(N3CCOCC3)CCCCC2)c1`, for which the activity change, negative = inhibition is inactive: 5.01%.

Take `CCC(CO)(C(=O)OC1CN2CCC1CC2)c1ccccc1` (stereo not drawn): the activity change, negative = inhibition was inactive: 6.8%.

`Fc1ccccc1NC1CCN(Cc2ccccc2)CC1`: the activity change, negative = inhibition was inactive: -1.62%.

As to `COc1cc(OC)cc(C(=O)NCC2(N3CCCCC3)CCCCC2)c1`, the activity change, negative = inhibition is inactive: 3.17%.

As for `CN(C)c1ccc(C(=O)NCC2(N3CCCCC3)CCCCC2)cc1`, the activity change, negative = inhibition is inactive: -2.96%.

As to `CCN1CCC(Nc2cccc(F)c2)CC1`, the activity change, negative = inhibition is inactive: -4.66%.

For `CCOC(=O)C(CC)C1=NC(C)(C)Cc2ccccc21.O=[N+]([O-])c1cc([N+](=O)[O-])c(O)c([N+](=O)[O-])c1` (stereo not drawn), the activity change, negative = inhibition is inactive: -1.2%.

For `N#Cc1ccc(C(=O)NCC2(N3CCCCC3)CCCCC2)cc1`, the activity change, negative = inhibition was inactive: 4.27%.

On to `CC(C)(C)OC(=O)N1CCC(N(C(=O)c2ccccc2)c2ccc(Cl)cc2)CC1`, for which the activity change, negative = inhibition is inactive: -2.22%.

Regarding `CN(C)C1(CNC(=O)c2cccc(C#N)c2)CCCCC1`, the activity change, negative = inhibition is inactive: 10.7%.

For the compound `CCCN1CCC(Nc2cc(OC)cc(OC)c2)CC1`, the activity change, negative = inhibition is inactive: -0.508%.

Consider `c1ccc(CN2CCC(Nc3ccccc3)CC2)cc1`, for which the activity change, negative = inhibition was inactive: 13.4%.

As for `COc1ccc(C(=O)NCC2(N3CCOCC3)CCCCC2)cc1OC`, the activity change, negative = inhibition was inactive: 4.07%.

As to `O=C(O)c1cccc(Nc2c([N+](=O)[O-])cc([N+](=O)[O-])cc2[N+](=O)[O-])c1`, the activity change, negative = inhibition was inactive: -32.5%.

Take `O=C(OC1CN2CCC1CC2)C1c2ccccc2C=Cc2ccccc21` (stereo not drawn): the activity change, negative = inhibition was inactive: 2.24%.

With `CCOC(=O)N1CCC(Nc2ccc(C)cc2)CC1`, the activity change, negative = inhibition was inactive: 10.6%.

In the case of `N/C(=N\O)c1c(N)no[n+]1[O-]`, the activity change, negative = inhibition was inactive: 4.48%.

Regarding `COc1cc(OC)c(C(=O)NCC2(N(C)C)CCCCC2)cc1OC`, the activity change, negative = inhibition was inactive: -2.31%.

Regarding `CC(C)c1ccc(NC2CCN(C(=O)OC(C)(C)C)CC2)cc1`, the activity change, negative = inhibition is inactive: 7.21%.

For `O=[N+]([O-])c1cc([N+](=O)[O-])c(OC2CCCCC2O)c([N+](=O)[O-])c1` (stereo not drawn), the activity change, negative = inhibition is inactive: -8.61%.

For `CN(C)c1cccc(C(=O)NCC2(N3CCCCC3)CCCCC2)c1`, the activity change, negative = inhibition is inactive: -4.11%.

For the origin of these results see PubChem BioAssay AID2662 (National Center for Advancing Translational Sciences (NCATS), 2010).
